Measurements taken from patent publication US8293914B2, “4-OXO,1-4-dihydroquinoline M1 receptor positive allosteric modulators” (Merck Sharp & Dohme Corp., priority 2008, dated 2012).

By UniProt entry, the sequences of proteins in these tests, tags left out. Where a name states a change or a piece, a line headed by the entry shows the natural chain unless it says otherwise.
UniProt P11229: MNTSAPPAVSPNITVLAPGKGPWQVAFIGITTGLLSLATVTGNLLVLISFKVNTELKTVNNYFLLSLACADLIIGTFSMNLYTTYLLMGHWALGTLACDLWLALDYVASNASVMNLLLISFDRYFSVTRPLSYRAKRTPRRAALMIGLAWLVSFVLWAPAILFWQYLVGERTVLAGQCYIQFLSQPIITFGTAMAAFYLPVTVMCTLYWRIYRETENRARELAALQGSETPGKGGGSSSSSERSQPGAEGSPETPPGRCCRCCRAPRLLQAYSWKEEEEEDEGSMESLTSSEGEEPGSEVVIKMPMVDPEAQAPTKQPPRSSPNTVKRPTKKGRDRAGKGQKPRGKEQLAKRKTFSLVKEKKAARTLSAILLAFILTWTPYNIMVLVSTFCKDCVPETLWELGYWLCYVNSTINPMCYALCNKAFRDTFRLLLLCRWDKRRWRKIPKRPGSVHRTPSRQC

Molecular target: T1, acetylcholine muscarinic M1 receptor (CHOnfat/hM1 cells) (Homo sapiens, UniProt P11229)
T1 construct: expressed in transfected cells; host or cells: CHOnfat (CHO) cells expressing hM1
Test: muscarinic M1 FLIPR calcium assay for positive allosteric modulator activity (acetylcholine EC20)
Assay type: cell-based
Experimental: The assay studies the effect of one or several concentrations of test compounds on basal or acetylcholine-stimulated Ca^2+ levels using FLIPR.
Compounds are prepared and subjected to a preincubation period of 4 min. Thereafter, a single EC20 concentration of acetylcholine is added to each well (3 nM final). The intracellular Ca^2+ level of each sample is measured and compared to an acetylcholine control to determine any modulatory activity.
Cells: CHOnfat/hM1, hM2, hM3 or hM4 cells are plated 24 hr before the assay at a density of 18,000 cells/well (100 μL) in a 384 well plate. CHOnfat/hM1 and CHOnfat/hM3 Growth Medium: 90% DMEM (Hi Glucose); 10% HI FBS; 2 mM L-glutamine; 0.1 mM NEAA; Pen-Strep; and 1 mg/ml Geneticin, are added. For M2Gqi5CHOnfat and M4Gqi5CHOnfat cells, an additional 600 μg/ml hygromycin is added.
Buffers. […] Dye Loading Buffer: Assay Buffer plus 1% Fetal Bovine Serum and Fluo-4AM/Pluronic Acid Mixture. […] 20% Pluronic Acid Solution stock, with a concentration of 0.04% in Buffer, 0.02% in Assay.
65 μL of 2 mM Fluo-4AM are mixed with 130 μL of 20% Pluronic Acid. The resulting solution and 650 μL FBS is added to the assay buffer for a total volume of 65 mL. Positive Controls: 4-Br-A23187: 10 mM in DMSO; final concentration 10 μM. Acetylcholine: 10 mM in water, working stock at both 20 μM and 30 μM in assay buffer, final concentration of 10 μM. This is used to check the maximum stimulation of the CHOK1/hM1 cells. 20 μM (2×) acetylcholine is added in the preincubation part of the assay, and the 30 μM (3×) stock is added in the second part. (EC20)Acetylcholine: 10 mM in water, working stock of 9 nM (3×), and final concentration in assay is 3 nM. This is used after the preincubation with test compounds. […]
After 60 min, the cells are washed three times with 100 μL of buffer, leaving 30 μL of buffer in each well. […] A signal test to check background fluorescence and basal fluorescence signal is performed. […]
The inflection point is calculated from the FLIPR values, and is a measure of activity.

| SMILES | EC50 |
| --- | --- |
| Cn1cc(-c2ccc(Cn3cc(C(=O)O)c(=O)c4c(F)cccc43)nc2)cn1 [Example 11] | 176 nM |
| CC(=O)Nc1cccc(-c2ccc(Cn3cc(C(=O)O)c(=O)c4cccc(F)c43)nc2)c1 [Example 75] | 131 nM |
| O=C(O)c1cn(Cc2ccc(-c3cccnc3)nc2)c2c(F)cccc2c1=O [Example 216] | 951 nM |
